# Results published in PMC3189208 (PLoS ONE, 2011).
# The chains behind the UniProt entries cited, without tags or fusion partners.
# UniProt P35372, whole entry: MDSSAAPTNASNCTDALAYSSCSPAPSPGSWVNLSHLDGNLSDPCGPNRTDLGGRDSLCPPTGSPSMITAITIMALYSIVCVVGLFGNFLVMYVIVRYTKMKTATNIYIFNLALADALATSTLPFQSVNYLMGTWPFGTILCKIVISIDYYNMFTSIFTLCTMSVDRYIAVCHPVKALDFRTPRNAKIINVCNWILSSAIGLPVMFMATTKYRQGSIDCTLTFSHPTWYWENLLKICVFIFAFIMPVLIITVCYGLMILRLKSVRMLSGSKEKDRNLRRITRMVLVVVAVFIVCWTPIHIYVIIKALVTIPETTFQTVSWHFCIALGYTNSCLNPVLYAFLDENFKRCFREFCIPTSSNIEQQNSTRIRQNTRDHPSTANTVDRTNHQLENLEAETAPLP
# Experiments:
# [1] = biological target: T1, human mu opioid receptor (MOR1) in HEK-MOR cells (Homo sapiens, UniProt P35372)
# [2] = biological target: T1, human mu opioid receptor (MOR1) in HEK-MOR cells; format: cell-based; parameters: FLAG; expressed in transfected cells
# [3] = biological target: T1, human mu opioid receptor (MOR1) in HEK-MOR cells; format: cell-based; parameters: FLAG; expressed in transfected cells; remark: listed apart in the source
# [4] = biological target: T1, human mu opioid receptor (MOR1) in HEK-MOR cells; format: cell-based; parameters: FLAG; expressed in transfected cells; remark: listed apart in the source
# [5] = biological target: T1, human mu opioid receptor (MOR1) in HEK-MOR cells; format: cell-based; parameters: FLAG; expressed in transfected cells; remark: listed apart in the source
Molecule,"subcluster in heat map (super cluster 1 antagonists, 2 agonists) [1]",bias between DMR response and whole cell cAMP response [4],also measured
C[C@@H](NC(=O)[C@@H](N)Cc1ccc(O)cc1)C(=O)NCC(=O)N(C)[C@@H](Cc1ccccc1)C(=O)NCCO [DAMGO],subcluster 2.1,,
COC(=O)[C@@H]1C[C@H](OC(C)=O)C(=O)[C@H]2[C@@]1(C)CC[C@H]1C(=O)O[C@H](c3ccoc3)C[C@]21C [salvinorin A],subcluster 1.3,,DMR produced by ligand in HEK-MOR cells [2]: noticeable P-DMR signal; pharmacology at the MOR concluded from DMR profiling [1]: partial agonist activity; CTOP-induced DMR after ligand pretreatment [3]: N-DMR response
C=CC[N+]1(C)CC[C@]23c4c5ccc(O)c4O[C@H]2C(=O)CC[C@@]3(O)[C@H]1C5 (stereo partly drawn) [naloxone methionone],subcluster 1.2,,
C=CCN1CCC2(C)c3cc(O)ccc3CC1C2C (stereo not drawn) [SKF10047],subcluster 1.1,biased towards cAMP,
COC(=O)/C=C/C(=O)N[C@@H]1CC[C@@]2(O)[C@H]3Cc4ccc(O)c5c4[C@@]2(CCN3CC2CC2)[C@H]1O5 [β-funaltrexamine],subcluster 1.1,,"maximum DMR response compared with DAMGO [5]: smaller maximum response than DAMGO; EC50 ([5]; read-out: EC50 (DMR, monophasic dose response)): 0.1 ± 0.02 nM; ligand-induced DMR after DAMGO pretreatment [3]: full N-DMR response"
"CN(C(=O)Cc1ccc(Cl)c(Cl)c1)[C@H](CN1CCCC1)c1cccc(N=C=S)c1 [DIPPA, 2-(3,4-Dichlorophenyl)-N-methyl-N-[(1S)-1-(3-isothiocyanatophenyl)-2-(1-pyrrolidinyl)ethyl]acetamide]",subcluster 2.2,,
DSLET,subcluster 2.1,,pharmacology at the MOR concluded from DMR profiling [1]: full agonist for the MOR
Oc1ccc2c3c1O[C@H]1c4c(c5ccccc5n4Cc4ccccc4)C[C@@]4(O)[C@@H](C2)N(CC2CC2)CC[C@]314 [N-benzylnaltrindole],subcluster 1.3,,
nociceptin 1-13: ORL1 agonist,subcluster 2.3,biased towards DMR,
Oc1ccc2c3c1O[C@H]1c4[nH]c5c(c4C[C@@]4(O)[C@@H](C2)N(CC2CC2)CC[C@]314)C[C@@]1(O)[C@H]2Cc3ccc(O)c4c3[C@@]1(CCN2CC1CC1)[C@H]5O4 [nor-binaltorphine],subcluster 1.3,,
Oc1ccc2c3c1O[C@H]1c4[nH]c5ccccc5c4C[C@@]4(O)[C@@H](C2)N(CC2CC2)CC[C@]314 [naltrindole],subcluster 1.2,,ligand-induced DMR after DAMGO pretreatment [3]: full N-DMR response
O=C(Cc1ccc(Cl)c(Cl)c1)N1CCCCC1CN1CCCC1 (stereo not drawn) [BRL-52537],subcluster 2.2,biased towards cAMP,
COc1ccc2c3c1O[C@H]1[C@@H](O)C=C[C@H]4[C@@H](C2)NCC[C@@]341 [(-)-norcodeine],subcluster 2.2,biased towards cAMP,
C=CCN1CC[C@]23CCCC[C@H]2[C@H]1Cc1ccc(O)cc13 [levallorphan],subcluster 1.1,biased towards cAMP,pharmacology at the MOR concluded from DMR profiling [1]: partial agonists for the MOR; ligand-induced DMR after DAMGO pretreatment [3]: full N-DMR response
COc1cccc(C2(O)CCCCC2CN(C)C)c1 (stereo not drawn) [tramadol],subcluster 2.3,biased towards DMR,
O=C1/C(=C/c2ccccc2)C[C@@]2(O)[C@H]3Cc4ccc(O)c5c4[C@@]2(CCN3CC2CC2)[C@H]1O5 [BNTX],,,DMR produced by ligand in HEK-MOR cells [2]: N-DMR; pharmacology at the MOR concluded from DMR profiling [1]: antagonist; DAMGO-induced DMR after ligand pretreatment [3]: inhibited; ligand-induced DMR after CTOP pretreatment [3]: only slightly altered; ligand-induced DMR after DAMGO pretreatment [3]: N-DMR
